Results on 1 molecule are retold here after ChEMBL document CHEMBL5376006, “Discovery of a Hidden Pocket beneath the NES Groove by Novel Noncovalent CRM1 Inhibitors” (J Med Chem, 2023).

Protein sequences, listed by entry. Tags and fused reporters are not part of them.
UniProt O14980, whole entry: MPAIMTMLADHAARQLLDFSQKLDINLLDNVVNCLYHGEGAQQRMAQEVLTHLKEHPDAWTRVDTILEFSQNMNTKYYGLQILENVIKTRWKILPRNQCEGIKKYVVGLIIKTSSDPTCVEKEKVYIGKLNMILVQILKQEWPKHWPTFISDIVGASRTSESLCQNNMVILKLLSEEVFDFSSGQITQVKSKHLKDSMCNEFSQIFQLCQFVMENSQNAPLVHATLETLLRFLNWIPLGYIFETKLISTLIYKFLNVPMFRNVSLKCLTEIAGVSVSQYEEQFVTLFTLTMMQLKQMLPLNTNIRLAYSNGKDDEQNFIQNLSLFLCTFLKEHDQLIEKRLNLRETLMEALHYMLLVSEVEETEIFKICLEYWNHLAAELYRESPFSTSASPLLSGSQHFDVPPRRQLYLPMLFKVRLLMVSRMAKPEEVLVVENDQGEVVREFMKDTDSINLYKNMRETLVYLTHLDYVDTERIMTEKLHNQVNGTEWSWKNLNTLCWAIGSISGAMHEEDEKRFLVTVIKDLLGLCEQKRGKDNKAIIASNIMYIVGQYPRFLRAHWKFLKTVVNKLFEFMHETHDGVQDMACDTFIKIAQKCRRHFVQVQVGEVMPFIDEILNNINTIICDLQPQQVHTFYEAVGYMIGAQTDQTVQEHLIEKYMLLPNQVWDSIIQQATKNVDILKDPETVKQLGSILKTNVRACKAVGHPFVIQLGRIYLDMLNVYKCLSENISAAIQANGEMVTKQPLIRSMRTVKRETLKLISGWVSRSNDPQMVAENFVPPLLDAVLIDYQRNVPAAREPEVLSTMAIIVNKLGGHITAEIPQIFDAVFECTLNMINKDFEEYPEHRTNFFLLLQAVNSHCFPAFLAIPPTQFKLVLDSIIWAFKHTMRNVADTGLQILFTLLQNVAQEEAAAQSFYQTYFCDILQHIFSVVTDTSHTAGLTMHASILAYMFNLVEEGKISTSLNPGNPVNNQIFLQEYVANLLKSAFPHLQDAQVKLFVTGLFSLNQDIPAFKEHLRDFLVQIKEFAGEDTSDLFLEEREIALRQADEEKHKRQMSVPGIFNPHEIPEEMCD

This test concerns the target Exportin-1 (Homo sapiens, UniProt O14980). Description: Covalent inhibition of CRM1 (unknown origin) binding to GST-tagged NES PKI assessed as CRM1/NES band ratio at 20 uM incubated for 1.5 hrs by Coomassie brilliant blue staining based pull-down assay.

As to `O=C(/C=C\n1cnc(-c2cc(C(F)(F)F)cc(C(F)(F)F)c2)n1)NNc1cnccn1` [SELINEXOR], the Ratio was determined as 0.01.
